The record followed here is US20110076693A1 (US Dept. of Health and Human Services, published 2011).

The target of the assay is T1, Polo-Like Kinase 1 (Plk1), endogenous, from HeLa lysates (H. sapiens).
T1 construct: also called endogenous Plk1
Description: pulldown from mitotic HeLa lysates with bead-bound GST, anti-Plk1 immunoblot.

B1: control glutathione S-transferase (GST) (other, UniProt P08515 1-218, looked up)
chain: MSPILGYWKIKGLVQPTRLLLEYLEEKYEEHLYERDEGDKWRNKKFELGLEFPNLPYYIDGDVKLTQSMAIIRYIADKHNMLGGCPKERAEISMLEGAVLDIRYGVSRIAYSKDFETLKVDFLSKLPEMLKMFEDRLCHKTYLNGDHVTHPDFMLYDALDVVLYMDPMCLDAFPKLVCFKKRIEAIPQIDKYLKSSKYIAWPLQGWQATFGGGDHPPK
notes: Negative control of the pulldowns; also called control GST
For B1, the binding result is “no binding”.
